PubChem BioAssay AID720551 (National Center for Advancing Translational Sciences (NCATS), 2013)
This is a selection; strong and weak results do not stand in their true shares. Activity calls are given as the source filed them.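 Rule for the calls: active = maximum activity change below -70%; inconclusive = maximum activity change between -70% and -50%; inactive = maximum activity change above -50%.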

Amino acid sequences for entries named in this document (tags omitted).
UniProt Q12809, whole entry: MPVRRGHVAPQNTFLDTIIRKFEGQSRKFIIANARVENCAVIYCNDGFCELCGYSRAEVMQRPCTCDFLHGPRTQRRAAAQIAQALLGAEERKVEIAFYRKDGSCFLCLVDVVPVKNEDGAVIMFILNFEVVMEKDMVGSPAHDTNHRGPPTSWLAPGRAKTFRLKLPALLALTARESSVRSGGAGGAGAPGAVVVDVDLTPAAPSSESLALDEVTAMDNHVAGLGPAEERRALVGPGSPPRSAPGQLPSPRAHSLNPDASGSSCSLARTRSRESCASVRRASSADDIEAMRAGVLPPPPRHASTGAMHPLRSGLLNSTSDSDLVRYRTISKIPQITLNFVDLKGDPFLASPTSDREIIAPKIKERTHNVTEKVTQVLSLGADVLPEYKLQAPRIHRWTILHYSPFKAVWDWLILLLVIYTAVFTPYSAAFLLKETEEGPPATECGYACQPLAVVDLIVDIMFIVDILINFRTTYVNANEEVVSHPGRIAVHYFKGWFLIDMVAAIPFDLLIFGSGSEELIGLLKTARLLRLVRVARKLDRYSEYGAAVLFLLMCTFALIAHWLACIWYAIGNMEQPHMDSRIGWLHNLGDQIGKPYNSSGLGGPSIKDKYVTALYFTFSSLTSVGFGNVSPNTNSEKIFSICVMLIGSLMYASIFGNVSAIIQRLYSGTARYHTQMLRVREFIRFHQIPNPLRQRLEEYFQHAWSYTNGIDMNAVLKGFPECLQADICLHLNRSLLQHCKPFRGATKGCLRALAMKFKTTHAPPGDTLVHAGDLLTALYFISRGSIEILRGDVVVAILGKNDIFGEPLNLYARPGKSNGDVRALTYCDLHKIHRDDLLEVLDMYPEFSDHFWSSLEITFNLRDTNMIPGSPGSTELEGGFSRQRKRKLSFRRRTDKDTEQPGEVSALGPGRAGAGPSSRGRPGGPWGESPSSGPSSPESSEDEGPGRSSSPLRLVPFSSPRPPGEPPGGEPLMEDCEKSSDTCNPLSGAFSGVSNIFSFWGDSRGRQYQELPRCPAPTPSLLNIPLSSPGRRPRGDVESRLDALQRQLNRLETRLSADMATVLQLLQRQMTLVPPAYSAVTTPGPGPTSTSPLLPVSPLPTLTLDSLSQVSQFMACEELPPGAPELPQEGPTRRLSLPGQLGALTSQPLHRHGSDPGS

What follows are compounds tested against Voltage-gated inwardly rectifying potassium channel KCNH2 (Homo sapiens) (UniProt Q12809) (assay: qHTS for Inhibitors of KCHN2 3.1: Wildtype qHTS). Details: U2OS, BacMam KCNH2, thallium flux FluxOr; at 1.84 µM; active compounds read low.
Description: Many antipsychotic drugs that inhibit the neurotransmitter dopamine also bind to hERG1 channel which might help explain their antipsychotic activity but also produces cardiac side effects. The discovery of the novel KCNH2 3.1 isoform offers a potential new target for the development of antipsychotic drugs without cardiac side effects. This proposal will use a high throughput thallium flux assay developed for KCNH2 to screen compounds that modulate the activity of KCNH2 3.1. The wild type KCNH2 channel will also be screened in parallel to help define the selective modulators of this KCNH2 3.1 potassium channel. The resulting compounds will be validated in electrophysiology experiments. The availability of animal models will allow future testing in vivo for effects on memory and other aspects of animal physiology linked with psychosis. NIH Chemical Genomics Center [NCGC] NIH Molecular Libraries Probe Centers Network [MLPCN] MLPCN Grant: MH096539 Assay Submitter (PI): James Barrow, Johns Hopkins University, Lieber Institute for Brain Development
U2OS cells were resuspended in cell media containing 10% fetal calf serum (FCS) at a concentration of 2 million cells / mL. […] A stimulation buffer was added to the plate and the second kinetic read (2 min) was obtained. The rate constant was calculated from the kinetic reads and normalized to the positive and negative DMSO controls.
% is set by controls: 0 for no effect and ±100 for the full control effect.

Q: `CCC(=O)N(c1ccccc1)C1(COC)CCN(CCn2nnn(CC)c2=O)CC1` was tested. Which activity change did it give?
A: inactive: -3.95%
